Measured values from US11370784B2 (MISSION THERAPEUTICS LIMITED, priority 2016, dated 2022).

Chains of the proteins cited; added tags and fusions are not shown. Residues count along the entry.
UniProt Q70CQ3, 57-517 limits assumed: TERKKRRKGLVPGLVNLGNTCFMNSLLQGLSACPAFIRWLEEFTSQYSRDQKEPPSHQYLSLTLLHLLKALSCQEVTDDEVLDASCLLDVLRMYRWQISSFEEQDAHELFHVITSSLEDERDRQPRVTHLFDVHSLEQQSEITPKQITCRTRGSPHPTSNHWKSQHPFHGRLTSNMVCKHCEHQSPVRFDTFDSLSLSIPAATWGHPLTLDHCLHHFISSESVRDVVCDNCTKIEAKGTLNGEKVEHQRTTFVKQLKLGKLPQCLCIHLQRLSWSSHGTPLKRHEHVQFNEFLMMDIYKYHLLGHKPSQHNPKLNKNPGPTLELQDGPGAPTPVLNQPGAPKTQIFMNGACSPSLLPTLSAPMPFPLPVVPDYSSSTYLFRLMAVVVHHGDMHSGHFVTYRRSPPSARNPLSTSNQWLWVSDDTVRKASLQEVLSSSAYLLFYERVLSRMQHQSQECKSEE

Target: USP30 (Homo sapiens (Human), UniProt Q70CQ3)
Assay: USP30 biochemical IC50 assay
Conditions: read-out: IC50 range; fluorescence polarisation, TAMRA labelled peptide linked to ubiquitin as substrate; enzyme and compound incubated 30 min at room temp

N#CN1CCC[C@](F)(C(=O)Nc2ccc(-c3ccnc4cn[nH]c34)cn2)C1
IC50: 100 to 1000 nM
